Experimental data published in patent US10844032B2, “Substituted benzofuran, benzothiophene and indole Mcl-1 inhibitors” (Vanderbilt University, priority 2012, dated 2020).

Chains of the proteins cited; added tags and fusions are not shown. Residues count along the entry.
UniProt Q07820, 172-327: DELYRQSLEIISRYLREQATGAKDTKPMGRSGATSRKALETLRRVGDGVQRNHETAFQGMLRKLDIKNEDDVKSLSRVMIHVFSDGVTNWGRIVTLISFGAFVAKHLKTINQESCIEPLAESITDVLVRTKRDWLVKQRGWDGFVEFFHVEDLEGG

molecular target: recombinant Mcl-1 (residues 172-327) (Homo sapiens (Human), UniProt Q07820); assay: Bak peptide fluorescence polarization anisotropy competition assay, Mcl-1; type: binding; details: not given

Compound | Ki [nM]
O=C(O)c1sc2cccc(Cl)c2c1CCCOc1cccc2ccccc12 [Example 3, 4-chloro-3-(3-(naphthalen-1-yloxy)propyl)benzo[b]thiophene-2-carboxylic acid] | 1000 to 9990
Cc1cc(OCCCc2c(C(=O)O)sc3cccc(Cl)c23)cc(C)c1Cl [Example 4, 4-chloro-3-(3-(4-chloro-3,5-dimethylphenoxy)propyl)benzo[b]thiophene-2-carboxylic acid] | 1000 to 9990
Cc1cc(OCCCc2c(C(=O)O)sc3cc(Cl)ccc23)cc(C)c1Cl [Example 6] | 101 to 299
O=C(O)c1sc2c(Cl)cccc2c1CCCOc1cccc2ccccc12 [Example 7, 7-chloro-3-(3-(naphthalen-1-yloxy)propyl)benzo[b]thiophene-2-carboxylic acid] | 501 to 999
Cc1cc(OCCCc2c(C(=O)O)sc3c(Cl)cccc23)cc(C)c1Cl [Example 8, 7-chloro-3-(3-(4-chloro-3,5-dimethylphenoxy)propyl) benzo[b]thiophene-2-carboxylic acid] | 501 to 999
O=C(O)c1oc2ccc(Cl)cc2c1CCCOc1cccc2ccccc12 [Example 24, 5-chloro-3-(3-(naphthalen-1-yloxy)propyl)benzofuran-2-carboxylic acid] | 1000 to 9990
Cc1cc(OCCCc2c(C(=O)O)oc3ccccc23)cc(C)c1Cl [Example 26, 3-(3-(4-chloro-3,5-dimethylphenoxy)propyl)benzofuran-2-carboxylic acid] | 1000 to 9990

same assay, conditions: Table 3; FITC-Bak peptide 10 nM, Mcl-1 14 nM; read-out: Ki Mcl-1

Compound | Ki [nM]
Cc1cc(OCCCc2c(C(=O)O)sc3cc(Cl)ccc23)cc(C)c1Cl [Example 6] | 210
